# Apparent affinities of Ab-14 variants for a coronavirus HR2 peptide

Data: MIT Lincoln Laboratory AlphaSeq set, Engelhart et al. 2022, doi:10.1038/s41597-022-01779-4, as distributed in FLAb.

Target: peptide PDVDLGDISGINAS, taken from heptad repeat 2 (HR2) of SARS-CoV-2 spike.

The variants keep the light chain, the linker and the frameworks of Ab-14 (scFv order VH, a 15-residue (Gly4Ser)3 linker, VL).
VH: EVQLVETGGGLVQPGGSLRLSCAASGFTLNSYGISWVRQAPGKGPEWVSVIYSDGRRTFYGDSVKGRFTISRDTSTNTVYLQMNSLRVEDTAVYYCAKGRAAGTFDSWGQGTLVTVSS
VL: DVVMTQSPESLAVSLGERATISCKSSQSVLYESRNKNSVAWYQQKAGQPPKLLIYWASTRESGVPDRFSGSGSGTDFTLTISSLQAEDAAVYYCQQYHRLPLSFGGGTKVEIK

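Phage display of a naive human antibody library on the peptide gave the parent. AAYL49 was designed without a model: most single CDR substitutions and a random sample of double and triple ones. The assay is AlphaSeq: two haploid yeast populations carry antibody and antigen on their surface. Pairs that bind mate more often; barcode pairs of the diploids are counted by sequencing. Scores were corrected for input abundance and mapped to Kd with protein pairs of known affinity run in the same pool. Mating was done three times.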

Changes read parent residue, position, new residue, counted from the first residue of the VH shown. The Kd shown is the geometric mean over detected replicates; a lower Kd is a better binder. Where no diploid with the target was found in any replicate, the entry reads "no signal": below detection, most likely a poor binder, though not proof of it. As a blank, each scFv also met three strains without target: over library AAYL49, 15% of these pairings were detected, typically at 11 µM and seldom below 680 nM.

Kd	replicates with signal	changes
19 µM	1/3	T58Q/R100A/G103N
42 µM	1/3	S35I/Y52H/K65A
4.2 µM	1/3	S35L/A102Y
64 nM	3/3	A102N/T104V/F105P
no signal	0/3	F27M/D54L/F105Y
790 nM	1/3	G26L/F27A/V50I
no signal	0/3	G26H/F27L/F59R
no signal	0/3	I51N/G61N/T104G
no signal	0/3	F27C/G99Y
100 µM	2/3	G33N/F59L/G61W
no signal	0/3	Y32K/S63M/D106H
6.4 µM	1/3	T58P/S63R/V64P
940 nM	1/3	S35M/G55Y/R57H
3.4 µM	1/3	D54K/G61P/A102I
no signal	0/3	S53T/R56P
no signal	0/3	G99L/G103S/T104K
no signal	0/3	D54N/S63A/T104C
110 µM	1/3	Y32C/T104Y
49 µM	1/3	G26I/T28L/I51C
7.8 µM	1/3	S31Q/Y52M/G61E
no signal	0/3	N30R/D54M/R100Y
no signal	0/3	F27T/S53Y/F105R
no signal	0/3	G26A/T28H/R57F
no signal	0/3	R56Y/S63L/G103H
80 µM	1/3	F59Q/Y60L/D62E
no signal	0/3	R57Q/Y60A/G103Q
11 µM	2/3	F27K/S35D/F105P
17 µM	2/3	T28R/Y52M/G55Y
no signal	0/3	V50K/Y60C/G61D
no signal	0/3	G26L/L29R/S107F
3.0 nM	3/3	T28D/F59I/G61T
470 nM	1/3	S31F/S35R/D106R
34 µM	2/3	T28L/G33D
160 µM	1/3	Y32R/D62L/D106S
49 µM	2/3	L29P/R56A/T104W
110 µM	2/3	N30S/I34E/S63K
no signal	0/3	L29W/T58S/D106W
250 µM	1/3	Y60T/G61F/G103L
no signal	0/3	G26H/L29W/S35R
no signal	0/3	D54G/Y60W/G103T
no signal	0/3	G33P/I34Y/D106F
16 nM	3/3	K65R/A102Q/F105H
no signal	0/3	R57K/V64N/D106A
no signal	0/3	G55A/K65A/A102K
no signal	0/3	N30P/Y32Q/D62I
660 nM	1/3	G55F/Y60K/D62H
500 µM	2/3	L29I/Y52E/G55D
no signal	0/3	I51K/D54E/D62C
2.1 µM	3/3	L29V/K65M/D106T
14 µM	1/3	Y32E/G55A/D106F
no signal	0/3	G26L/A102Q/G103E
no signal	0/3	F27S/L29G/Y32K
no signal	0/3	Y52F/G99D/T104A
700 µM	1/3	S53P/R57N/T104P
11 µM	1/3	L29A/Y32D/G61V
3.9 mM	2/3	G26W/T28K/L29N
5.5 µM	1/3	V50P/K65L/R100E
no signal	0/3	Y52C/S53P/G103V
no signal	0/3	G26V/G61M/K65G
78 µM	1/3	S53C/G99K
87 µM	1/3	F27E/G55H/F105L
1.9 µM	2/3	T28Y/F59Y/S63H
no signal	0/3	R57L/D106S/S107C
1.7 µM	1/3	F27Q/V64D/G99K
22 µM	2/3	G33F/K65Q
no signal	0/3	L29A/I51H/Y60F

The closing 7 entries, repeated:

changes	Kd	replicates with signal
S53C/G99K	78 µM	1/3
F27E/G55H/F105L	87 µM	1/3
T28Y/F59Y/S63H	1.9 µM	2/3
R57L/D106S/S107C	no signal	0/3
F27Q/V64D/G99K	1.7 µM	1/3
G33F/K65Q	22 µM	2/3
L29A/I51H/Y60F	no signal	0/3

For reference, the parent read 4.4 nM as the reference entry and 13 µM (one replicate of three) as a member of this library.